Source: BindingDB's records for PubMed 7796807 (Synaptic Pharmaceutical, 1995)

Amino acid sequences for entries named in this document (tags omitted). A change or cut given only in a name is not applied to a line headed by its entry.
UniProt Q62758: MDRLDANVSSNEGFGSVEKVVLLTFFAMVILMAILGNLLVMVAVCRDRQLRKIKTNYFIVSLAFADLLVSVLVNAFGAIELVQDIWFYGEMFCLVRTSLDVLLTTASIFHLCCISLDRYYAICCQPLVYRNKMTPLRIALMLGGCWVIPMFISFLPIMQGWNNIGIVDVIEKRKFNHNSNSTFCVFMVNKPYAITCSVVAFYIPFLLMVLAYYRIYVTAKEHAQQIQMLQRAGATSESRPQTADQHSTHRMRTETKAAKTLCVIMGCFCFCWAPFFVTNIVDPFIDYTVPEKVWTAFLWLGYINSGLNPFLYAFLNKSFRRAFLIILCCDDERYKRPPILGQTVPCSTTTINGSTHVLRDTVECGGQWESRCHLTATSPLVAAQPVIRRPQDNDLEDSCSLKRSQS

Target: 5-hydroxytryptamine receptor 4 (Rattus norvegicus, UniProt Q62758)

SMILES: NCCc1c[nH]c2ccc(O)cc12 [[3H]-5-HT]
- Ki: 145 nM
